Yeast mating assay B: variants of the scFv Ab-14

Values reported by Li et al. 2023, doi:10.1038/s41467-023-39022-2 (FLAb copy).

All variants were tested on one target, the spike HR2 peptide PDVDLGDISGINAS (SARS-CoV-2).

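The starting antibody came from a phage panning campaign against this peptide. The variants were designed computationally from a first round of random CDR variants and then made and measured. Group labels follow the data file (Ctrl: baseline library sampled from a position-specific scoring matrix, with some repeated check sequences; Rand: our label for a block that the file lists under HC and that is probably the random mutants of the ten best first-round binders; En: ensemble of fine-tuned language models; GP: Gaussian process model; GPLM: also part of the Gaussian process libraries; HC: hill climbing; Gen: genetic algorithm; Gibbs: Gibbs sampling; a sequence that several methods proposed may carry one label only). The assay is AlphaSeq: two haploid yeast populations carry antibody and antigen on their surface. Binding brings cells together so that they mate, and sequencing counts the barcode pairs among the diploids. Each replicate has its own calibration line, from reference interactions of the BCL2 family. The assay was run in six technical replicates.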

Parent scFv Ab-14: VH joined to VL by a (GGGGS)3 linker. Changes lie in the heavy chain CDRs alone.
VH: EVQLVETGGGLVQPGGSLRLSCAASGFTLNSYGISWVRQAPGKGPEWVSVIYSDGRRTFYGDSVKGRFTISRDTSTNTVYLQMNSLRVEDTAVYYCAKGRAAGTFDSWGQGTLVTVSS
VL: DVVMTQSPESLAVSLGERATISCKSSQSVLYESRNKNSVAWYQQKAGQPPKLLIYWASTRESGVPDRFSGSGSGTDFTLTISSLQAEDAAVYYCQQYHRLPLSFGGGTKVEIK

Variants are written as CDR1, CDR2 and CDR3 of the heavy chain (limits as in the source). Parent: GFTLNSYGIS, VIYSDGRRTFYGDSVK, GRAAGTFDS.
Values are log10 of the apparent Kd in nM; lower means stronger binding.
The mean shown is taken over the replicates in which the pair was detected.
Where no diploid with the target was found in any replicate, the entry reads "nd": below detection, most likely a poor binder, though not proof of it.
The parent sequence was in this pool as ten entries: three were never detected, three once, and four in most replicates, with averages from 0.34 to 2.37.

CDR-H1,CDR-H2,CDR-H3,group,mean log10 Kd (nM),replicates with signal
GFNLDEYGIS,VIYADGRRTVYADSVK,GEAAGTFDI,En_HC,-0.08,6/6
GFDIEEYGIS,VIYADGMRTVYSDSFK,SGRTVNIDL,En_Gibbs,nd,0/6
GFTLNEYGIS,VIYSDGRRTFYGESVK,GRAAVTFDT,GP_HC,0.57,1/6
GFELNMYGIS,VIYSDGRRTMYGDSVK,GRTAGTFDS,GP_Gibbs,0.89,6/6
GFDLDEYGIS,VIYADGMRTAYSDSVK,GQTAGTFDV,En_Gen,0.26,6/6
GFTLNEYGIS,VIYSDGRRTFYGDSVK,GDPAGCMDS,Ctrl,-0.90,1/6
GFDIDEYGIS,VIYADGHRTQYSEQVK,GVNMGFLVE,En_Gibbs,nd,0/6
GFTLNDYGIS,VIYSDGRRTFYGDSVK,GRAAGTFDQ,Ctrl+GPLM_HC,0.99,8/12
GFHLNSYGIS,VIYSDGRRTFYGDSVK,GKEAGTFDS,GP_Gen,0.84,5/6
GFSLDEMGIS,VIYADGQRTAYQDNVK,GVNGVVVFV,En_Gibbs,nd,0/6
GFDLDEYGIS,VIYADGKRTVYADSVK,GNVAGTFDV,En_Gen,-1.07,3/6
GFTLNSYGIS,VIYSDGRRTFYGDSVK,GREAGTFDN,GPLM_Gen,1.49,5/6
GFTLNSYGIS,VIYSDGWRTFYTDSVK,GRASDTFDS,Ctrl,nd,0/6
GFDLDEYGIS,VIYADGMRTAYTDSVK,GNEAGTFDL,En_Gen,-0.52,6/6
GKGLDEYGVS,VIYADGKRHSYAEDVK,GGIAGQFLV,En_Gibbs,nd,0/6
GFDLDEYGIS,VIYADGRRTFYQDSVK,GNVAGTFDK,En_HC,0.36,6/6
GFDLNEYGIS,VIYADGQRTFYADNVK,GEVAGTFDV,En_HC,-0.57,6/6
GFDLNEYGIS,VIYADGRRTFYADSVK,GTAAGTFDQ,En_HC,-0.26,6/6
GFTLNSYGIS,VIYSDGRRTFYGDSVK,GKAAGTFDL,Ctrl,2.35,5/6
GFNLNSYGIS,VIYSDGRRTFYGDSVK,GRWAGTFDS,Ctrl+GPLM_Gen,1.33,5/12
GFTLNQYGIS,VIYSDGRRTAYGDSVK,GSEAGTFDS,Ctrl,-0.55,6/6
GFSLNSYGIS,VIYSDGRRTFYTDDVK,GNAAGTFDS,GPLM_Gibbs,0.15,6/6
GFQLNEYGIS,VIYSDGRRTFYGDSVK,GQAAGTFDQ,GPLM_HC,0.39,6/6
GFDLNEYGIS,VIYADGVRTAYADSVK,GNNAGTFDI,En_Gen,0.23,6/6
GFTLNDYGIS,VIYSDGRRTMYGDSVK,GRTAGTFDS,GPLM_Gen,0.10,6/6
GFSLNSYGIS,VIYSDGRRTFYSDQVK,GTAAGTFDS,GP_Gibbs,1.43,1/6
GFDLEDYGIS,VIYADGRRTAYIDSVK,GEAAGTFDK,En_HC,-0.37,6/6
GFTLNSYGIS,VIYADGRRTFYIDSVK,GRGTGTFDS,Ctrl,nd,0/6
GFTMSSYGIS,VIYSDGRRTFYDDSVK,GQLKGTFDS,Rand,nd,0/6
GFSLDEYGIS,VIYADGRRTMYRDKVK,GELGCTIMG,En_Gibbs,nd,0/6
GFTLNSYGIS,VIYSDGHRTMYGDSVK,GRLAGTFDS,Ctrl,1.26,1/6
GFTLNSYGIS,VIYADGYRTFYGDDVK,GGEAGTFDS,Ctrl,0.28,6/6
GFELNSYGIS,VIYSDGRRTFYADSVK,GRTAGTFDS,GPLM_Gen,0.82,4/6
GEDLEEYGIS,VIYADGMRQYYANSVK,GTSNDFDDL,En_Gibbs,nd,0/6
GFSLDEYGVS,VIYADGFRTAYTNSVK,GLMQQGRTV,En_Gibbs,nd,0/6
YFTLNSYGIS,VIYSDGRRTFYGDSVK,GQTAGTFDL,GP_Gibbs,nd,0/6
GFDLNEYGIS,VIYADGRRTAYIDSVK,GNQAGTFDM,En_HC,-0.54,6/6
GFDLDEYGIS,VIYADGQRTAYAESVK,GENAGTFDV,En_Gen,-0.02,6/6
GFDLDEYGIS,VIYADGMRTAYSDSVK,GDNAGTFDV,En_Gen,nd,0/6
GFDLNEYGIS,VIYADGMRTAYSDSVK,GNVAGTFDI,En_Gen,-0.90,6/6
GFTVNSYGIS,VIYSDGRRTFYGDSVK,GRAAGCDDS,Ctrl,nd,0/6
GFDLQEYGIS,VIYADGQRTKVTDNVK,GNVTFTAGV,En_Gibbs,nd,0/6
GFRLDSYGIS,IIYSDGRRTFYGDSVK,GRPAGTFDS,Ctrl,nd,0/6
GADLNEYGIS,VIYSDGRRTFYGDSVK,GEAAGTFDL,Ctrl,1.66,2/6
GFDLNEYGIS,VIYADGMRTAYSDNVK,GENAGTFDL,En_Gen,-0.31,6/6
GFDLNEYGIS,VIYADGRRTQYIDSVK,GEIAGTFDN,En_HC,1.15,6/6
GFLLNDYGIS,VIYSDGRRTFYKDSVK,GEAAGTFDS,GP_HC,1.08,6/6

Top 5 of the variants detected in all replicates, tightest first:

CDR-H1,CDR-H2,CDR-H3,group,mean log10 Kd (nM),replicates with signal
GFDLNEYGIS,VIYADGMRTAYSDSVK,GNVAGTFDI,En_Gen,-0.90,6/6
GFDLNEYGIS,VIYADGQRTFYADNVK,GEVAGTFDV,En_HC,-0.57,6/6
GFTLNQYGIS,VIYSDGRRTAYGDSVK,GSEAGTFDS,Ctrl,-0.55,6/6
GFDLNEYGIS,VIYADGRRTAYIDSVK,GNQAGTFDM,En_HC,-0.54,6/6
GFDLDEYGIS,VIYADGMRTAYTDSVK,GNEAGTFDL,En_Gen,-0.52,6/6

Nonspecific signal, from three strains lacking the peptide, appeared in 1% of pairings of all heavy chain designs, centred on 2.08 (5% of these signals below 0.84); values are not corrected for it.
The authors' rule: three or more of the six replicates give a measured affinity, fewer mean a poor binder.
A sequence that the file lists under several names has all its replicates pooled.
A sequence measured in both rounds can read differently, since the two assays cover different ranges.